Values of other authors as cited in patent publication US5733881A, “Opioid peptide antagonists” (Astra AB, priority 1994, dated 1998).

Amino acid sequences for entries named in this document (tags omitted).
UniProt P35372, whole entry, species assumed: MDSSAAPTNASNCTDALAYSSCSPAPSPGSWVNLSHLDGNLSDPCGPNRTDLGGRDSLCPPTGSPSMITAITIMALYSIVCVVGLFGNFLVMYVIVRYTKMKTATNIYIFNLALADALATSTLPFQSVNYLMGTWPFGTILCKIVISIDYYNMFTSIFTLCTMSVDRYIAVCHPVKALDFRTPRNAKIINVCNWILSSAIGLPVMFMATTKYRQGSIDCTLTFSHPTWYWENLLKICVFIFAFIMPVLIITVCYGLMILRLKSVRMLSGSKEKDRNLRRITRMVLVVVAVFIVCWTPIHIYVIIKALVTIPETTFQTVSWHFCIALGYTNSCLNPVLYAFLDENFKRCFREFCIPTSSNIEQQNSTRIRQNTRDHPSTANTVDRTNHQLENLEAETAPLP

Molecular target: μ opioid receptor (Homo sapiens, UniProt P35372)
Settings: read-out: μ opioid receptor affinity Ki^μ; receptor binding assay

In the case of `Oc1ccc2c3c1O[C@H]1c4[nH]c5ccccc5c4C[C@@]4(O)[C@@H](C2)N(CC2CC2)CC[C@]314` [naltrindole], the Ki is listed as 0.012 µM.
